{"source": "patent US4921695A", "about": "“Antianginal plate for treating ischemic heart disease” (dated 1990)", "origin": "cited, not measured here", "settings": "tablets per os", "note": "Some compounds may have been tested in ways that are not shown here.", "data": [{"molecule": "O=[N+]([O-])OCC(CO[N+](=O)[O-])(CO[N+](=O)[O-])CO[N+](=O)[O-]", "values": [{"measurement": "Form in which active principle reaches the blood", "value": "inactivated form"}]}]}
